Active and inactive are the calls of the source. The rule behind the calls is not given here.
Target: T1, Sentrin-specific protease 1 (Homo sapiens) (UniProt Q9P0U3)
T1 sequence (whole entry): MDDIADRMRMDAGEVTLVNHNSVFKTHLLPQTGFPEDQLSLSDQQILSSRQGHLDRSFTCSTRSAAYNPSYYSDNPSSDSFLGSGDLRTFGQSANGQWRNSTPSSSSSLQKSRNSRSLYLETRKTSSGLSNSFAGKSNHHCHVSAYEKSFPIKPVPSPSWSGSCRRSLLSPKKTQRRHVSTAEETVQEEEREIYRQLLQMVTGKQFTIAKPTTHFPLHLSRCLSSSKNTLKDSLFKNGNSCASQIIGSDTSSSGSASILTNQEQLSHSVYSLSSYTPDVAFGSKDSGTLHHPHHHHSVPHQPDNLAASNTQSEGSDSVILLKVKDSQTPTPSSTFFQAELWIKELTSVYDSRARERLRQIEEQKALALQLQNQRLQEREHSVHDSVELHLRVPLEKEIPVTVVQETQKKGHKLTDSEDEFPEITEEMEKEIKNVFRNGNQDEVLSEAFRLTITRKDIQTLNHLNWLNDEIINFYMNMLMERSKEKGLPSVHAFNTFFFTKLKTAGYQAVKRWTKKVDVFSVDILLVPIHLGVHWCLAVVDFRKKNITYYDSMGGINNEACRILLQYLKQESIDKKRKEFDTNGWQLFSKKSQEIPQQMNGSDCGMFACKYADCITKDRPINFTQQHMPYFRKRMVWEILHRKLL
Test: Binding affinity to SENP1 in human HeLa cells after 1 hr by affinity chromatography/Western blot analysis
Type: cell-based

Activity	Structure (SMILES)
inactive	O=C(O)CCCCCNC(=O)CCCCCNC(=O)CCC[C@@H]1SC[C@@H]2NC(=O)N[C@@H]21
Active	COC(=O)c1cccc(CNc2ccc(NC(=O)Nc3ccc(NC(=O)CCCCCNC(=O)CCCCCNC(=O)CCC[C@@H]4SC[C@@H]5NC(=O)N[C@@H]54)cc3)cc2)c1
